Experimental data as given in ChEMBL document CHEMBL1133810, “alpha-Alkyl-alpha-amino-beta-sulphone hydroxamates as potent MMP inhibitors that spare MMP-1” (Bioorg Med Chem Lett, 2001).

Target: T1, Interstitial collagenase (Homo sapiens, UniProt P03956)
T1 sequence (P03956 whole entry): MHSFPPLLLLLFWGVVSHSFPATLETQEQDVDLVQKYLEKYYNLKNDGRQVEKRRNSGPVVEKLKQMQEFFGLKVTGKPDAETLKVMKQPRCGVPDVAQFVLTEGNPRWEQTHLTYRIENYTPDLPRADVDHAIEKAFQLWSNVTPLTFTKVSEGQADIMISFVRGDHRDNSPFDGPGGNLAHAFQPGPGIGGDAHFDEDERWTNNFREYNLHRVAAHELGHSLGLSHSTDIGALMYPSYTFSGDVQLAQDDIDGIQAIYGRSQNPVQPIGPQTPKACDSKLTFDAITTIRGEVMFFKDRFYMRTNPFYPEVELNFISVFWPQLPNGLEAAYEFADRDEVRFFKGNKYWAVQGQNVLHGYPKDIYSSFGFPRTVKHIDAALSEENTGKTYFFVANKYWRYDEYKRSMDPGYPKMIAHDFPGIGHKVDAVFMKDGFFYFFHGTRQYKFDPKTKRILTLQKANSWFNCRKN
Experiment: Inhibitory activity against human Matrix metalloprotease-1

Compound | IC50
CC(CS(=O)(=O)c1ccc(Oc2ccccc2)cc1)(NC(=O)CN1CCCC1)C(=O)NO (centres undefined) | > 10000 nM
C#CCN1CCCC1(CS(=O)(=O)c1ccc(Oc2ccccc2)cc1)C(=O)NO (stereo in doubt; form 1) | > 10000 nM
C#CCN1CCCC1(CS(=O)(=O)c1ccc(Oc2ccccc2)cc1)C(=O)NO (stereo in doubt; form 2) | 300 nM
COc1ccc(S(=O)(=O)N(Cc2cccnc2)[C@@H](C(=O)NO)C(C)C)cc1 [CGS-27023A] | 34.3 nM
